Values quoted from earlier work, collected in patent publication US9126947B2, “Substituted pyridazine carboxamide compounds” (Xcovery Holding Company LLC, priority 2010, dated 2015).

Test system: NSCLC with EML4-ALK
Details: cited from earlier work
[1] = expansion trial, 50 evaluable patients

C[C@@H](Oc1cc(-c2cnn(C3CCNCC3)c2)cnc1N)c1c(Cl)ccc(F)c1Cl [PF-2341066, crizotinib]
Disease control [1]: 90%
Objective response (ORR) by RECIST [1]: 64%
Radiographic response rate (phase I trial, NSCLC patients with EML4-ALK): 60%
